Where a name gives a salt, the structure may show the parent alone.
How the values were obtained:
Type in all cases: biochemical
Pim-1 [1] = target: T1, Pim-1 (Homo sapiens (Human), UniProt P11309); experiment: Pim-Mn enzyme assay (HTRF, 384-well), Pim-1; details: read-out: Pim-1-Mn IC50 IP
Pim-1 [2] = target: T1, Pim-1; experiment: Pim enzyme assay (HTRF, 96-well), Pim-1; details: full length recombinant Pim-1, biotinylated-BAD (S112) peptide, 10-point curve, 2 h RT, read-out: Pim-1 IC50 IP
Pim-2 [3] = target: T2, Pim-2 (Homo sapiens (Human), UniProt Q9P1W9); experiment: Pim enzyme assay (HTRF, 96-well), Pim-2; details: full length recombinant Pim-2, biotinylated-BAD (S112) peptide, 10-point curve, 45 min RT, read-out: Pim-2 IC50 IP
Pim-2 [4] = target: T2, Pim-2; experiment: Pim-Mn enzyme assay (HTRF, 384-well), Pim-2; details: read-out: Pim-2-Mn IC50 IP
[5] = Pim-1 enzyme 5 pM, ATP 1.5 μM, BAD (S112) 0.5 μM, HTRF, 22-point curve
[6] = Pim-2 enzyme 0.5 pM, ATP 1.5 μM, BAD (S112) 0.5 μM, HTRF, 22-point curve

Protein sequences, listed by entry. Tags and fused reporters are not part of them. Lines headed by an entry give the natural chain unless they say otherwise; changes in a name come on top.
UniProt P11309, whole entry: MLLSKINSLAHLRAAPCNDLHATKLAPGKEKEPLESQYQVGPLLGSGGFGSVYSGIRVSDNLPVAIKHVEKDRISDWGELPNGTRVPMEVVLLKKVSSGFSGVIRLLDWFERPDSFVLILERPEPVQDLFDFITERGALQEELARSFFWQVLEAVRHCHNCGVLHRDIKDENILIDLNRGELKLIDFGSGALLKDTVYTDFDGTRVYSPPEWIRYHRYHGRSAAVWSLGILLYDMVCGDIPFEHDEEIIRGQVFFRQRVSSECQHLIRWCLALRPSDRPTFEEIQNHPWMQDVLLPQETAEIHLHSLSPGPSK
UniProt Q9P1W9: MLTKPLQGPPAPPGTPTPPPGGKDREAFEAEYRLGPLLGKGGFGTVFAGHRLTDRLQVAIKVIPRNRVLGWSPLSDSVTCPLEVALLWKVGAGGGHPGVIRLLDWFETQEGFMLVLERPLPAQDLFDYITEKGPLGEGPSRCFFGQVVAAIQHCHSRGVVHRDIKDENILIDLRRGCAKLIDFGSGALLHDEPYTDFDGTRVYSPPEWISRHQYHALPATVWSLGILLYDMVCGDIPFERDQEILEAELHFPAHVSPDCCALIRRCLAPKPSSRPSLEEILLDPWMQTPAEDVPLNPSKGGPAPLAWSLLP

IC50 (Pim-1 [1]; [5])	IC50 (Pim-2 [3])	IC50 (Pim-2 [4]; [6])	Compound	also measured
	23.7 nM		CC1CNC(=O)c2cc(-c3cccc4ccc(Nc5ccccc5)nc34)[nH]c21 (single isomer, unassigned) [Example 30, 7-methyl-2-(2-(phenylamino)quinolin-8-yl)-6,7-dihydro-1H-pyrrolo[3,2-c]pyridin-4(5H)-one]	
	17.8 nM		CC(c1ccccc1)c1ccc2cccc(-c3cc4c([nH]3)CCNC4=O)c2n1 (single isomer, unassigned) [Example 116, 2-(2-(1-phenylethyl)quinolin-8-yl)-6,7-dihydro-1H-pyrrolo[3,2-c]pyridin-4(5H)-one]	IC50 (Pim-1 [2]): 7.6 nM
1.3 nM	9.3 nM	3.5 nM	Cc1nc2cccc(-c3cc4c([nH]3)CCNC4=O)c2nc1N[C@H]1CCC[C@@H](N)C1 (single isomer, unassigned) [Example 141, 2-(3-((cis-3-aminocyclohexyl)amino)-2-methylquinoxalin-5-yl)-6,7-dihydro-1H-pyrrolo[3,2-c]pyridin-4(5H)-one]	IC50 (Pim-1 [2]): 3.7 nM
		2.1 nM	Cc1nc2cccc(-c3cc4c([nH]3)CCNC4=O)c2nc1NC1CCCOC1 (single isomer, unassigned) [Example 208, 2-(2-methyl-3-((tetrahydro-2H-pyran-3-yl)amino)quinoxalin-5-yl)-6,7-dihydro-1H-pyrrolo[3,2-c]pyridin-4(5H)-one]	
	29.7 nM		CC[C@@H]1CNC(=O)c2cc(-c3cccc4ccc(Nc5ccccc5)nc34)[nH]c21 [Example 25, (R)-7-ethyl-2-(2-(phenylamino)quinolin-8-yl)-6,7-dihydro-1H-pyrrolo[3,2-c]pyridin-4(5H)-one]	
	2.8 nM		CC[C@H]1CNC(=O)c2cc(-c3cccc4ccc(Nc5ccccc5)nc34)[nH]c21 [Example 239, (S)-7-ethyl-2-(2-(phenylamino)quinolin-8-yl)-6,7-dihydro-1H-pyrrolo[3,2-c]pyridin-4(5H)-one]	
0.116 nM			Cc1nc2ccc(F)c(-c3cc4c([nH]3)[C@@H](C)NC4=O)c2nc1NC(C)(C)C [Example 297, (6R)-2-(3-(tert-butylamino)-6-fluoro-2-methyl-5-quinoxalinyl)-6-methyl-5,6-dihydropyrrolo[3,4-b]pyrrol-4(1H)-one]	
2.1 nM		2.02 nM	Cc1nc2cccc(-c3cc4c([nH]3)[C@H](C)NC4=O)c2nc1NC(C)(C)C [Example 327, (6S)-2-(3-(tert-butylamino)-2-methyl-5-quinoxalinyl)-6-methyl-5,6-dihydropyrrolo[3,4-b]pyrrol-4(1H)-one]	
0.012 nM		0.012 nM	C[C@H]1NC(=O)c2cc(-c3c(F)ccc4c(=O)n(C)c(NC(C)(C)C)nc34)[nH]c21 [Example 405, 2-(tert-butylamino)-7-fluoro-3-methyl-8-((6R)-6-methyl-4-oxo-1,4,5,6-tetrahydropyrrolo[3,4-b]pyrrol-2-yl)-4(3H)-quinazolinone]	
		0.4 nM	Cc1nc2cccc(-c3cc4c([nH]3)CCNC4=O)c2nc1N[C@H]1C[C@H](N)C1 [Example 437, 2-(3-(((1r,3r)-3-aminocyclobutyl)amino)-2-methylquinoxalin-5-yl)-6,7-dihydro-1H-pyrrolo[3,2-c]pyridin-4(5H)-one hydrochloride]	
		4.05 nM	Cn1c(NC(C)(C)C)nc2c(-c3cc4n(c3)CCNC4=O)cccc2c1=O [Example 449, 2-(tert-butylamino)-3-methyl-8-(1-oxo-1,2,3,4-tetrahydropyrrolo[1,2-a]pyrazin-7-yl)-4(3H)-quinazolinone]	
		0.1 nM	C[C@H]1NC(=O)c2cc(-c3c(F)ccc4c(=O)n(C5CC5)c(NC5(C)CCC5)nc34)[nH]c21 [Example 498, 3-Cyclopropyl-7-fluoro-2-((1-methylcyclobutyl)amino)-8-((6R)-6-methyl-4-oxo-1,4,5,6-tetrahydropyrrolo[3,4-b]pyrrol-2-yl)-4(3H)-quinazolinone]	

The remaining lines, values behind:

Compound	IC50 (Pim-1 [1]; [5])	IC50 (Pim-2 [3])	IC50 (Pim-2 [4]; [6])	also measured
Cc1nc2cccc(-c3cc4c([nH]3)CCNC4=O)c2nc1NC1CCC(=O)NC1 (racemic) [Example 199, rac-2-(2-methyl-3-((6-oxopiperidin-3-yl)amino)quinoxalin-5-yl)-6,7-dihydro-1H-pyrrolo[3,2-c]pyridin-4(5H)-one]	14.5 nM			
CC1CNC(=O)c2cc(-c3cccc4ccc(Nc5ccccc5)nc34)[nH]c21 (single isomer, unassigned) [Example 29, 7-methyl-2-(2-(phenylamino)quinolin-8-yl)-6,7-dihydro-1H-pyrrolo[3,2-c]pyridin-4(5H)-one]		2.4 nM		IC50 (Pim-1 [2]): 0.5 nM
CC1Cc2[nH]c(-c3cccc4ccc(Nc5ccccc5)nc34)cc2C(=O)N1 (single isomer, unassigned) [Example 33, 6-methyl-2-(2-(phenylamino)quinolin-8-yl)-6,7-dihydro-1H-pyrrolo[3,2-c]pyridin-4(5H)-one]				IC50 (Pim-1 [2]): 6.3 nM
CC1Cc2[nH]c(-c3cccc4ccc(Nc5ccccc5)nc34)cc2C(=O)N1 (single isomer, unassigned) [Example 34, 6-methyl-2-(2-(phenylamino)quinolin-8-yl)-6,7-dihydro-1H-pyrrolo[3,2-c]pyridin-4(5H)-one]				IC50 (Pim-1 [2]): 18.4 nM
CC(c1ccccc1)c1ccc2cccc(-c3cc4c([nH]3)CCNC4=O)c2n1 (single isomer, unassigned) [Example 115, 2-(2-(1-phenylethyl)quinolin-8-yl)-6,7-dihydro-1H-pyrrolo[3,2-c]pyridin-4(5H)-one]		122 nM		IC50 (Pim-1 [2]): 58.7 nM
CCC1CNC(=O)c2cc(-c3cccc4cc(C)c(Nc5ccccc5)nc34)[nH]c21 (single isomer, unassigned) [Example 117, 7-ethyl-2-(3-methyl-2-(phenylamino)quinolin-8-yl)-6,7-dihydro-1H-pyrrolo[3,2-c]pyridin-4(5H)-one]		0.9 nM		
CCC1CNC(=O)c2cc(-c3cccc4cc(C)c(Nc5ccccc5)nc34)[nH]c21 (single isomer, unassigned) [Example 118, 7-ethyl-2-(3-methyl-2-(phenylamino)quinolin-8-yl)-6,7-dihydro-1H-pyrrolo[3,2-c]pyridin-4(5H)-one]		16.1 nM		
Cc1nc2cccc(-c3cc4c([nH]3)CCNC4=O)c2nc1N[C@H]1CCC[C@@H](N)C1 (single isomer, unassigned) [Example 140, 2-(3-((cis-3-aminocyclohexyl)amino)-2-methylquinoxalin-5-yl)-6,7-dihydro-1H-pyrrolo[3,2-c]pyridin-4(5H)-one]	0.3 nM	0.2 nM	< 0.1 nM	IC50 (Pim-1 [2]): 0.8 nM
Cc1nc2cccc(-c3cc4c([nH]3)[C@@H](C)NC4=O)c2nc1NC(C)(C)C [Example 326, (6R)-2-(3-(tert-butylamino)-2-methyl-5-quinoxalinyl)-6-methyl-5,6-dihydropyrrolo[3,4-b]pyrrol-4(1H)-one]	0.618 nM		0.559 nM	
Cc1nc2cccc(-c3cc4c([nH]3)[C@H](C)NC4=O)c2nc1NCC(F)F [Example 383, (S)-2-(3-((2,2-difluoroethyl)amino)-2-methylquinoxalin-5-yl)-6-methyl-5,6-dihydropyrrolo[3,4-b]pyrrol-4(1H)-one]	3.7 nM		4.57 nM	
Cc1nc2cccc(-c3[nH]c4c(c3Cl)C(=O)N[C@@H]4C)c2nc1NC(C)(C)C [Example 455, (6R)-2-(3-(tert-butylamino)-2-methyl-5-quinoxalinyl)-3-chloro-6-methyl-5,6-dihydropyrrolo[3,4-b]pyrrol-4(1H)-one]	0.849 nM		1.43 nM	
Cn1c(NC(C)(C)C)nc2c(-c3cc4c([nH]3)C3(CC3)NC4=O)cccc2c1=O [Example 456, 2′-(2-(tert-butylamino)-3-methyl-4-oxo-3,4-dihydro-8-quinazolinyl)-1′H-spiro[cyclopropane-1,6′-pyrrolo[3,4-b]pyrrol]-4′(5′H)-one]			0.407 nM	
CCn1c(NC(C)(C)C)nc2c(-c3cc4c([nH]3)[C@@H](C)NC4=O)cccc2c1=O [Example 481, (R)-2-(tert-butylamino)-3-ethyl-8-(6-methyl-4-oxo-1,4,5,6-tetrahydropyrrolo[3,4-b]pyrrol-2-yl)quinazolin-4(3H)-one]				IC50 (Pim-2 [4]): 0.077 nM; IC50 (Pim-1 [1]): 0.082 nM
C[C@H]1NC(=O)c2cc(-c3c(F)ccc4c(=O)n(C)c(NC5(C)CCC5)nc34)[nH]c21 [Example 502, 7-fluoro-3-methyl-2-((1-methylcyclobutyl)amino)-8-((6R)-6-methyl-4-oxo-1,4,5,6-tetrahydropyrrolo[3,4-b]pyrrol-2-yl)-4(3H)-quinazolinone]				IC50 (Pim-2 [4]): 0.2 nM; IC50 (Pim-1 [1]): 0.1 nM
C[C@H]1NC(=O)c2cc(-c3c(F)ccc4c(=O)n(C)c(NC5(C)CC5)nc34)[nH]c21 [Example 510, (R)-7-fluoro-3-methyl-8-(6-methyl-4-oxo-1,4,5,6-tetrahydropyrrolo[3,4-b]pyrrol-2-yl)-2-((1-methylcyclopropyl)amino)quinazolin-4(3H)-one]				IC50 (Pim-2 [4]): 0.1 nM; IC50 (Pim-1 [1]): 0.065 nM

Source: patent US9394297B2, “Amides as pim inhibitors” (AMGEN INC., priority 2012, dated 2016)
